# Results from US20210094971A1, “HETEROCYCLIC COMPOUNDS” (Hoffmann-La Roche Inc., priority 2019, published 2021).
# Sequences of proteins named here, by UniProt entry; tags and fusion partners are left off.
# UniProt Q99685, whole entry: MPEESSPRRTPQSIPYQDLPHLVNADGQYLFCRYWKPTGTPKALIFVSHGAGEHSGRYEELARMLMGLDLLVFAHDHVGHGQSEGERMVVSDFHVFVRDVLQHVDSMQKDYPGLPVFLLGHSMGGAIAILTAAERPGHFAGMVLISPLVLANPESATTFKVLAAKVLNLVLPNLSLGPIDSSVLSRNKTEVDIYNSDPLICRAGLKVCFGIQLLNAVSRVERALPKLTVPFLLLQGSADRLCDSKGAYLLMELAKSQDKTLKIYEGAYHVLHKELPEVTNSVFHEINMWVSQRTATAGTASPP
# pIC50: −log10 of the molar value.
# Biological target: MAGL (Homo sapiens, UniProt Q99685)
# Test: 2-AG assay (MAGL inhibitory activity, hydrolysis of 2-arachidonoylglycerol followed by mass spectrometry)
# Conditions: read-out: MAGL IC50, 50 pM MAGL, 8 μM 2-arachidonoylglycerol, 15 min pre-incubation, 30 min incubation at RT
# Procedure: Compounds were profiled for MAGL inhibitory activity by determining the enzymatic activity by following the hydrolysis of the natural substrate 2-arachidonoylglycerol resulting in arachidonic acid, which can be followed by mass spectrometry. This assay is hereinafter abbreviated “2-AG assay”.
# The 2-AG assay was carried out in 384 well assay plates (PP, Greiner Cat# 784201) in a total volume of 20 μL. Compound dilutions were made in 100% DMSO (VWR Chemicals 23500.297) in a polypropylene plate in 3-fold dilution steps to give a final concentration range in the assay from 12.5 μM to 0.8 pM. 0.25 μL compound dilutions (100% DMSO) were added to 9 μL MAGL in assay buffer (50 mM TRIS (GIBCO, 15567-027), 1 mM EDTA (Fluka, 03690-100 ml), 0.01% (v/v) Tween. After shaking, the plate was incubated for 15 min at RT. To start the reaction, 10 μL 2-arachidonoylglycerol in assay buffer was added. The final concentrations in the assay was 50 pM MAGL and 8 μM 2-arachidonoylglyerol. After shaking and 30 min incubation at RT, the reaction was quenched by the addition of 40 μL of acetonitrile containing 4 μM of d8-arachidonic acid. The amount of arachidonic acid was traced by an online SPE system (Agilent Rapidfire) coupled to a triple quadrupole mass spectrometer (Agilent 6460). […] The activity of the compounds was calculated based on the ratio of intensities [arachidonic acid/d8-arachidonic acid].
smiles,measurement,value
"O=C1CO[C@H]2CCN(C(=O)N3CC4CC3CC4OCc3cc4c(cn3)CCCC4)C[C@H]2N1 (single isomer, unassigned)",pIC50,7.26
